These are literature values, as cited in patent publication US12600787B2, “Methods for the treatment of thyroid eye disease” (Horizon Therapeutics Ireland DAC, priority 2019, dated 2026).

For the data set the following is noted: in vivo; cited from earlier work.

Regarding Ganitumab, the T1/2 result was “IV; 6-9 days”.
